Assay: in vivo
Settings: fasting Sprague Dawley rat, oral route

Cc1cc2cccnc2n(-c2ccccc2)c1=O [Example 11, 1-phenyl 1,2-dihydro 2-oxo 3-methyl 1,8-naphthyridine]
LD50: 256 mg/kg

— patent publication US4622328A, “Phenyl-naphthyridines and drugs containing them, particularly anti-ulcer drugs” (priority 1984, dated 1986)
